The text below walks through data of PubChem BioAssay (Tox21).

Amino acid sequences for entries named in this document (tags omitted). A change or cut given only in a name is not applied to a line headed by its entry.
UniProt P06401: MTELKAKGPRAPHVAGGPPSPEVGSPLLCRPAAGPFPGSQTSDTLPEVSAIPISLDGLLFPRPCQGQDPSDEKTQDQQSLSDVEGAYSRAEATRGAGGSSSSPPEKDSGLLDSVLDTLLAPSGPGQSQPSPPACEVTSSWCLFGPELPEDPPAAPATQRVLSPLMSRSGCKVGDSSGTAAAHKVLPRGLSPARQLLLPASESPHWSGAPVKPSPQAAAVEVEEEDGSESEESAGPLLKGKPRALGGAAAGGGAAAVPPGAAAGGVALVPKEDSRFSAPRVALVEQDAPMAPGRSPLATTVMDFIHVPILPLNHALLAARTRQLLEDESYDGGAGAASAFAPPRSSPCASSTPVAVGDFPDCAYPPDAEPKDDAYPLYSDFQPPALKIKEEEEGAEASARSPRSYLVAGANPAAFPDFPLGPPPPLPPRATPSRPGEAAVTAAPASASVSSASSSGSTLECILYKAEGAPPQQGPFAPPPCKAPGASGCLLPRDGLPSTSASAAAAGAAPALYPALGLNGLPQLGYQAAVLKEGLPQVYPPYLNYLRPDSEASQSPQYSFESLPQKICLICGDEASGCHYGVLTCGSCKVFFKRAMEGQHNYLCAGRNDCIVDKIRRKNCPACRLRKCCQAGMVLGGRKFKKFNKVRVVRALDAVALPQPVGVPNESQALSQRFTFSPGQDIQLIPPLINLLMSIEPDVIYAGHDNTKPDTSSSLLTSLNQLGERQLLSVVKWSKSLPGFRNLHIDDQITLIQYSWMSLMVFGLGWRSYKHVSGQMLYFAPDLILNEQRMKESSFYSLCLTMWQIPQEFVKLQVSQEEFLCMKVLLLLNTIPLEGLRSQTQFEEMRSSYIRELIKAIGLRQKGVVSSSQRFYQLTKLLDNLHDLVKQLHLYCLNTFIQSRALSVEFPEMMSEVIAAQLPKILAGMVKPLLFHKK
UniProt P34981: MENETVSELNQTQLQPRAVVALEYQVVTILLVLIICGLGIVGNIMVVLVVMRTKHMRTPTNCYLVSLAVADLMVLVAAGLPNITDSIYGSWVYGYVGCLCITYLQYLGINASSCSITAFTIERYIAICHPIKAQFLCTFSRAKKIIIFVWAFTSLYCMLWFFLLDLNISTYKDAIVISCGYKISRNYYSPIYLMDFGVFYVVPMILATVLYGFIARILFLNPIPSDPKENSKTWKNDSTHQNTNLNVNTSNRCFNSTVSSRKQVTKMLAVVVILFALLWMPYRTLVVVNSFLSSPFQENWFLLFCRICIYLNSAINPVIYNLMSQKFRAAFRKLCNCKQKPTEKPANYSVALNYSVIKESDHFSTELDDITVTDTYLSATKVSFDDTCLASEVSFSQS
UniProt P22303: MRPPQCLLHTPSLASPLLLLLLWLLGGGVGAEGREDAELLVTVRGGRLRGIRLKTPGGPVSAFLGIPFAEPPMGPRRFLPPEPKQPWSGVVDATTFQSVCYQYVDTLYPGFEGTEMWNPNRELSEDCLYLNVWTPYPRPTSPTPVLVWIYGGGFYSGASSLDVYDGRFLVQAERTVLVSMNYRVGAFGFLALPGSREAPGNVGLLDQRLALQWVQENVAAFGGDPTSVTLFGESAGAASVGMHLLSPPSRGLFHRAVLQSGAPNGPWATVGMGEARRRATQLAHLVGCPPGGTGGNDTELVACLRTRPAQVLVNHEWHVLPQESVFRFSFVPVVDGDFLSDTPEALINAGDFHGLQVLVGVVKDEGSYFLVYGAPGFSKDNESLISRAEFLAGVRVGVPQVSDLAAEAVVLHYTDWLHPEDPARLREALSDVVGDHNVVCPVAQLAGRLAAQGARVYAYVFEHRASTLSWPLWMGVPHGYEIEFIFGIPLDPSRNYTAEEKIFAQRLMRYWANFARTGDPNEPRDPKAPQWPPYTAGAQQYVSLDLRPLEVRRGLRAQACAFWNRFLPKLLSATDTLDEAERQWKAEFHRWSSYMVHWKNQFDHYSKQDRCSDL
UniProt P33261, whole entry, looked up: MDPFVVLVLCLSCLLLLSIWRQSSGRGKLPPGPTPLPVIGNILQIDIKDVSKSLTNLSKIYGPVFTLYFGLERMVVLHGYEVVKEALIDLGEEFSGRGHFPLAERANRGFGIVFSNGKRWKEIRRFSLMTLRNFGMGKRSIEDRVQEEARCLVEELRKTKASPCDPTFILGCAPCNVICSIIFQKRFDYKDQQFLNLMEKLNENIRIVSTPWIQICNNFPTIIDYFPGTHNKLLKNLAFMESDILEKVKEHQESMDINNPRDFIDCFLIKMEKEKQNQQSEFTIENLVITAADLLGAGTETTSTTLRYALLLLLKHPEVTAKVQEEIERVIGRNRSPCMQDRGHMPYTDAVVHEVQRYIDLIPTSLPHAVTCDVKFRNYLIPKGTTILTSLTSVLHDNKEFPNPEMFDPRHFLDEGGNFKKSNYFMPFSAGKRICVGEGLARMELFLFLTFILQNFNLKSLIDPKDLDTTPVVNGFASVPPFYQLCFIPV
UniProt P11712, whole entry, looked up: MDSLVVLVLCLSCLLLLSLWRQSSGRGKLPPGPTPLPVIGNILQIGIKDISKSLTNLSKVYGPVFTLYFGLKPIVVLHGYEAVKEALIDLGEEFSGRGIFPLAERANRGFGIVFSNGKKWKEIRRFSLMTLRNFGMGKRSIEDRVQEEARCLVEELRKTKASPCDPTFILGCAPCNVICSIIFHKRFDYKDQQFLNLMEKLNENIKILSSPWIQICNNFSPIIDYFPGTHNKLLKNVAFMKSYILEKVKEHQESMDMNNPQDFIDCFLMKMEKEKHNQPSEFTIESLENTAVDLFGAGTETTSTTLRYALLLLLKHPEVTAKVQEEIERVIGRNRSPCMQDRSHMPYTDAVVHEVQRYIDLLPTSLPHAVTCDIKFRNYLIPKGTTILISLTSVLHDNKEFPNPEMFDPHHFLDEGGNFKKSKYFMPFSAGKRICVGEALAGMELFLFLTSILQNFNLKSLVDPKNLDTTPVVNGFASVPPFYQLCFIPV
UniProt P05177, whole entry, looked up: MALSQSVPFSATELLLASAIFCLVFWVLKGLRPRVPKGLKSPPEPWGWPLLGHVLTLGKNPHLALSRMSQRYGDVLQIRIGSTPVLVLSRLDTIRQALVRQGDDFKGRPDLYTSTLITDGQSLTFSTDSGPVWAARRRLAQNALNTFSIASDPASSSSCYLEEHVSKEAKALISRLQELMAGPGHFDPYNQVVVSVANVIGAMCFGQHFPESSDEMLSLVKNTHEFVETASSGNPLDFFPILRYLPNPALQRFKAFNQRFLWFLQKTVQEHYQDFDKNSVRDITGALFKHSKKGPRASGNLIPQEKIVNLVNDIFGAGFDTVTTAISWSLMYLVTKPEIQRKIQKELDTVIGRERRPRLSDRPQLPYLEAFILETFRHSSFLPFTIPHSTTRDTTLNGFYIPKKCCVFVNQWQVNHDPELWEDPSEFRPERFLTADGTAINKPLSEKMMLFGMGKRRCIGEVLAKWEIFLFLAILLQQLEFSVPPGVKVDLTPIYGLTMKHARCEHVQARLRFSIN
UniProt O75469: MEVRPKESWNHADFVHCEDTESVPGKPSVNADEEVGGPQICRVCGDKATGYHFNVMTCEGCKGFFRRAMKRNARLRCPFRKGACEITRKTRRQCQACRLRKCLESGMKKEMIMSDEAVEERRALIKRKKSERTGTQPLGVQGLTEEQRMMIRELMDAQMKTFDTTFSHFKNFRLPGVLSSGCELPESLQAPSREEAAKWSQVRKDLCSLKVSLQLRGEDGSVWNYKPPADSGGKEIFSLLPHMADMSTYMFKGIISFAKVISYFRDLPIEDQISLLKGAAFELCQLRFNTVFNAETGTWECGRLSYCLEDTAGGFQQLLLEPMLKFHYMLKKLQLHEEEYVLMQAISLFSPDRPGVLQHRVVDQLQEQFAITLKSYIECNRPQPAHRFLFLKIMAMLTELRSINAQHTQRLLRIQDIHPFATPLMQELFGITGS
UniProt Q12809: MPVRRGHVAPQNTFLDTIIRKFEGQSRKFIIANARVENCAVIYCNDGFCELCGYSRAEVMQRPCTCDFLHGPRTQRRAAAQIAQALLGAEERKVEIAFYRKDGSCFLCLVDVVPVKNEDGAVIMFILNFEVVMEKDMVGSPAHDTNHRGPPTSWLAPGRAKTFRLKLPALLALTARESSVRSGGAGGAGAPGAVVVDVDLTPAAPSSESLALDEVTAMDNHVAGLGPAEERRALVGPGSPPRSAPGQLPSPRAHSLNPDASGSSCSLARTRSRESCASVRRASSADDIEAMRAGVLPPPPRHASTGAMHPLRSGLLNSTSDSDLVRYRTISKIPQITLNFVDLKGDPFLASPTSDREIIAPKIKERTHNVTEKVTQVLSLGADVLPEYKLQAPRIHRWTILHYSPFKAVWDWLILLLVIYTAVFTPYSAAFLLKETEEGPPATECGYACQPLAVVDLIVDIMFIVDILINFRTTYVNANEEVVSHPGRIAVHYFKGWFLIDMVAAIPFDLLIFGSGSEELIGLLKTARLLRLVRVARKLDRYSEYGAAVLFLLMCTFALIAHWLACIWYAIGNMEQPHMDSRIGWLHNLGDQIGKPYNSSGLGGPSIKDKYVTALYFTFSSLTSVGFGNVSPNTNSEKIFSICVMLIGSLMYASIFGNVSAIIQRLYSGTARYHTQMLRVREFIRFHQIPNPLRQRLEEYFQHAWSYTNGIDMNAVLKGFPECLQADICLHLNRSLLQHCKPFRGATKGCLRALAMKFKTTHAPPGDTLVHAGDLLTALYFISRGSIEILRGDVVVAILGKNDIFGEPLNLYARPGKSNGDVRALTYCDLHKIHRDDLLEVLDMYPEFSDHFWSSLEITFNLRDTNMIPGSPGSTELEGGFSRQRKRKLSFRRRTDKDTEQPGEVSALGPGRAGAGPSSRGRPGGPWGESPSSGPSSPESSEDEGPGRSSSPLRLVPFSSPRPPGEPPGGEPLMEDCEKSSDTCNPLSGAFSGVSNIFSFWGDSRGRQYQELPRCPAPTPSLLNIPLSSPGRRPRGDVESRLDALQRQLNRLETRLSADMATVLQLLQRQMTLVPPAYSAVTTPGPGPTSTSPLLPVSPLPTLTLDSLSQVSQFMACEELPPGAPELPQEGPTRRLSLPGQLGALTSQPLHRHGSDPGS

Assay [1] can be described thus: qHTS assay to identify small molecule agonists of the estrogen receptor alpha (ER-alpha) signaling pathway in the presence of an antagonist - cell viability counter screen (AID 1259386).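 Further: cells exposed to compounds for 22 h at 37 °C before the viability read; nearly all actives have a fitted effect of over 30% in size.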 In a few lines: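 VM7Luc4E2 cells (endogenous full-length ER-alpha, 4×ERE-luciferase) were held 5 days in phenol red-free medium with 10% charcoal-stripped FBS, plated, then given 10.0nM ICI-182,780 and compounds at 15 concentrations for 22hr at 37C; viability read by CellTiter-Fluor fluorescence.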

Assay [2] has as its target Progesterone receptor (Homo sapiens) (UniProt P06401). As to the kind of experiment: qHTS assay to identify small molecule agonists of the progesterone receptor (PR) signaling pathway (AID 1346784; calls by dose curve; further: nearly all actives have a fitted effect of over 30% in size; further: potency means the concentration at half of the fitted maximal effect). In a few lines: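 Compounds were tested for PR agonism in HEK 293T cells bearing a beta-lactamase gene under UAS control. Treatment lasted 16 hr at 37C; signal came from fluorescence of a FRET substrate.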
In general terms: Quantitative high-throughput screening tests each substance at several concentrations.

The target is the same in assay [3]. As to the kind of experiment: qHTS assay to identify small molecule antagonists of the progesterone receptor (PR) signaling pathway (AID 1346795; active means well fitted inhibition curve with a large enough effect in the signal ratio in the repeat runs, not every such curve was filed as active; the % refers to the signal ratio). In a few lines:
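In HEK293T cells bearing the PR-UAS-bla reporter, compound effects on promegestone-driven (1 nM) beta-lactamase expression are assessed after 16 hr using a fluorescent FRET substrate incubated 2 hr at room temperature.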

Assay [4] in a line: qHTS assay to identify small molecule agonists of the progesterone receptor (PR) signaling pathway - cell viability counter screen (AID 1346799; calls by dose curve; further: nearly all actives have a fitted effect of over 45% in size). A digest of the protocol: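 Here, 3,000 PR-UAS-bla HEK293T cells per well were treated with compounds for 16 hr after a 6 hr preincubation at 37C and 5% CO2; cell viability is the CellTiter-Glo luminescence signal.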
Assay [5] in a line: qHTS assay to identify small molecule agonists of the TGF-beta/Smad signaling pathway - cell viability counter screen (AID 1346829). Further: top concentration of the series differs between compounds; nearly all actives have a fitted effect of over 45% in size. A digest of the protocol: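 Compound-treated SBE-bla HEK 293T cells (5 hr, 37 C) were assessed for viability with CellTiter-Glo in parallel with the reporter read.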
Assay [6] is described as follows: qHTS assay to identify small molecule agonists of the TGF-beta/Smad signaling pathway (AID 1346859; active means well fitted activation curve with a large enough effect in the signal ratio in the repeat runs, not every such curve was filed as active; the % refers to the signal ratio). The following applies: SBE-bla HEK293T, TGF-beta/Smad beta-lactamase reporter, 5 h. A digest of the protocol: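 Each well held 4,000 SBE-bla HEK 293T cells incubated overnight before compound addition; 5 hr later the cleavable FRET substrate went on for 2 hr at room temperature, and fluorescence was read at two emissions.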

Assay [7] concerns the target Thyrotropin-releasing hormone receptor (Homo sapiens) (UniProt P34981). As to the kind of experiment: qHTS assay to identify small molecule antagonists of the thyrotropin-releasing hormone receptor (TRHR) signaling pathway (AID 1346877; active means well fitted inhibition curve with a large enough effect in the repeat runs, not every such curve was filed as active).
Assay [8] shares this target. As to the kind of experiment: qHTS assay to identify small molecule agonists of the thyrotropin-releasing hormone receptor (TRHR) signaling pathway (AID 1346891; calls by dose curve;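 further: HEK293 cells expressing TRHR with calcium dye readout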). The following applies: TRHR-HEK293 calcium fluorescence, agonist mode.
The nature of assay [9]: Caspase-3/7 induction in CHO-K1 cells by small molecules, qHTS cell viability counter screen (AID 1346979). Further: nearly all actives have a fitted effect of over 35% in size. A digest of the protocol:
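CellTiter-Fluor viability check, qHTS format: wild-type CHO-K1, 16hr compound treatment, 1hr reagent incubation, fluorescence read.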

The nature of assay [10]: Caspase-3/7 induction in CHO-K1 cells by small molecules, qHTS assay (AID 1346980). Further: nearly all actives have a fitted effect of over 15% in size. The note with it: CHO-K1 caspase-3/7 induction, Caspase-Glo luminescence, 17 h. In a few lines:
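Wild-type cells were seeded at 1,500 per well and settled 5 hr at 37 C, 5% CO2, then exposed to DMSO-dissolved compounds for 17 hr. Caspase-Glo 3/7 reagent was added, and luminescence was read after 30min at room temperature.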

A short description of assay [11]: Caspase-3/7 induction in HepG2 cells by small molecules, qHTS cell viability counter screen (AID 1346981). Further: nearly all actives have a fitted effect of over 30% in size. In a few lines: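 Wild-type HepG2 cells (2,000/well) were allowed to settle for 5 hr at 37 C, 5% CO2, then dosed with compounds in DMSO by pin transfer. After 16 hr at 37 C, CellTiter-Fluor was added and fluorescence read 1 hr later.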
Assay [12] addresses Acetylcholinesterase (Homo sapiens) (UniProt P22303). As to the kind of experiment: Acetylcholinesterase (AChE) small molecule antagonists: colormetric cell-based qHTS assay (AID 1347395; calls by dose curve; further: nearly all actives have a fitted effect of over 30% in size). A digest of the protocol:
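AChE inhibition read colorimetrically via DTNB–thiocholine in SH-SY5Y cells. Compound 30 min, substrate 90 min, both 37 C.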

The target is the same in assay [13]. As to the kind of experiment: Acetylcholinesterase (AChE) small molecule antagonists: fluorescence cell-based qHTS assay (AID 1347398; calls by dose curve; further: nearly all actives have a fitted effect of over 50% in size). The note with it: Potency: AChE activity. A digest of the protocol:
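Human SH-SY5Y cells were plated overnight at 37 C, exposed to compound for 30 min at 37 C, 5% CO2, then given acetylthiocholine plus Thiolite Green for 40 min at room temperature; thiocholine fluorescence (Ex/Em 490/520 nm) reports endogenous AChE activity.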

Assay [14] concerns the target Cytochrome P450 2C19 (Homo sapiens) (UniProt P33261). As to the kind of experiment: Cytochrome P450 Family 2 Subfamily C Member 19 (CYP2C19) small molecule antagonists: luciferase reporter qHTS assay (AID 1671197). Further: nearly all actives have a fitted effect of over 65% in size. In a few lines:
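P450-Glo CYP2C19 screening system; proluciferin substrate; DMSO compound stocks; 10 min RT preincubation; NADPH regeneration, 1 h at 37C; luciferin detection reagent, 20 min RT; luminescence as RLU.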
In general terms: In a reporter assay the amount or activity of a reporter protein is the signal.

Assay [15] concerns the target Cytochrome P450 2C9 (Homo sapiens) (UniProt P11712). As to the kind of experiment: Cytochrome P450 Family 2 Subfamily C Member 9 (CYP2C9) small molecule antagonists: luciferase reporter qHTS assay (AID 1671198). Further: nearly all actives have a fitted effect of over 50% in size. A digest of the protocol: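 CYP2C9 activity was measured with a P450-Glo proluciferin substrate. Enzyme–substrate mix was held with compound for 10 min at room temperature, then NADPH regeneration solution was added for 1 h at 37C. Luciferin product was read as luminescence.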

Assay [16] addresses Cytochrome P450 1A2 (Homo sapiens) (UniProt P05177). As to the kind of experiment: Cytochrome P450 Family 1 Subfamily A Member 2 (CYP1A2) small molecule antagonists: luciferase reporter qHTS assay (AID 1671199). Further: nearly all actives have a fitted effect of over 50% in size.
Assay [17] in a line: Human pregnane X receptor (PXR) small molecule agonists, qHTS cell viability counter screen (AID 1346977). Further: nearly all actives have a fitted effect of over 50% in size. A digest of the protocol: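 Tox21 qHTS format; PXR-Luc HepG2, 2,000/well, charcoal-stripped FBS 5%. Cpd exposure 24hr. Read: CellTiter-Fluor fluorescence, multiplexed with luciferase.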
Assay [18] concerns the target Nuclear receptor subfamily 1 group I member 2 (Homo sapiens) (UniProt O75469). As to the kind of experiment: Human pregnane X receptor (PXR) small molecule agonists, qHTS assay (AID 1346982). Further: nearly all actives have a fitted effect of over 35% in size. In a few lines: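 PXR-Luc HepG2 cells (CYP3A4 promoter-driven luciferase) were seeded in medium with 5% charcoal-stripped FBS, left 5 hr at 37 C, then exposed to compounds in DMSO for 24 hr. Luminescence was read after ONE-Glo addition.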

Assay [19] can be described thus: qHTS assay to identify small molecule antagonists of the progesterone receptor (PR) signaling pathway - cell viability counter screen (AID 1346798). Further: nearly all actives have a fitted effect of over 50% in size. A digest of the protocol:
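Following a 4 hr attachment, PR-UAS-bla HEK293T cells in charcoal-stripped FBS medium were exposed to compounds with R5020 for 16 hr; CellTiter-Glo was added and luminescence read after 30 min at room temperature.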

In assay [20] the target is Voltage-gated inwardly rectifying potassium channel KCNH2 (Homo sapiens) (UniProt Q12809). As to the kind of experiment: Human Ether-a-go-go-Related Gene (hERG) channel small molecule antagonists: fluorescence cell-based qHTS assay (AID 1671200). In a few lines:
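Kinetic two-minute fluorescence traces, sampled at 1 s, were collected following thallium stimulus of U2OS cells (1000 per well) that had been cultured overnight at 37 C and loaded with FluxOR II.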

The mark [21] stands for this setting: at 76.8 µM (top of the series) unless noted.
Setting [22] is: at 57.6 µM (top of the series) unless noted.
Where [23] appears, read: at 92.4 µM (top of the series) unless noted.

This is a selection; strong and weak results do not stand in their true shares. Records with an inconclusive call do not appear. Calls of active or inactive are those of the source. Unless noted, the call rests on the fitted dose curve; in most records, active means well fitted curve in the direction sought with a large enough effect in the repeat runs; inconclusive means weak or mixed curves; inactive means no such curve, though single readings can be large; an effect the other way counts as inactive or inconclusive.
On the % scale 0 is the no-effect control and ±100 the full control effect.

For the molecule `CN(C(=O)Cc1ccc(Cl)c(Cl)c1)[C@H]1CC[C@@]2(CCCO2)C[C@@H]1N1CCCC1`, the Potency result in [1], in assay [2], in [3], in assay [4], in assay [5] and in assay [7] was “inactive” each time. The Potency entry in assay [9], in [11], in [12], in [13], in assay [14] and in assay [15] was “inactive” in each case. Also, the Potency entry in assay [16] was “inactive”. Moreover, the figures for the activation in assay [6] (setting [21]) and in assay [8] (setting [22]) were inactive: -3.19% [at 35.3 µM] and inactive: 0.303% [at 26.5 µM], respectively. Also, the caspase-3/7 activation in assay [10] (setting [23]) was inactive: -0.809% [at 42.5 µM].

Take `O=[N+]([O-])c1ccc(S(=O)(=O)O)c([N+](=O)[O-])c1`: the Potency in [2] is active: 24.5 µM. Moreover, the Potency result in assay [4], in assay [5], in assay [17], in assay [9], in [11] and in assay [18] was “inactive” each time. In assay [6] (setting [21]), the activation was inactive: 2.26%. For the same molecule, the caspase-3/7 activation in assay [10] (setting [23]) is inactive: -1.43%.

Turning to `NC(=O)Nc1ccc([As](=O)(O)O)cc1`, the Potency result in assay [1], in assay [2], in [3], in assay [19], in assay [4] and in assay [5] was “inactive” throughout. Moreover, the Potency entry in [7], in [17], in [9], in assay [11], in assay [18] and in assay [20] was “inactive” throughout. Also, the activation in assay [6] (at 35.3 µM (top of the series)) was inactive: -0.215%; in [6] (at 76.8 µM (top of the series)), inactive: 2.08%; in assay [8] (at 26.5 µM (top of the series)), inactive: -0.346%; in assay [8] (at 57.6 µM (top of the series)) it was inactive: -0.0368%. Also, the caspase-3/7 activation is inactive: -1.01% in assay [10] (at 42.5 µM (top of the series)) and inactive: 0.859% in assay [10] (at 92.4 µM (top of the series)).

For `CCNC(C)Cc1ccc2c(c1)OCO2` (centres undefined), the Potency entry in [1], in assay [2], in assay [3], in [5], in [7] and in assay [17] was “inactive” throughout. Besides, the Potency entry in assay [9], in [11], in [18], in assay [12], in assay [13] and in assay [15] was “inactive” throughout. Besides, the Potency result in assay [20] was “inactive”. In addition, the activation in assay [6] (setting [21]) is inactive: -0.998%; in [8] (setting [22]), inactive: 1.14%. The caspase-3/7 activation in assay [10] (setting [23]) was inactive: -0.0158%.
